The chains behind the UniProt entries cited, without tags or fusion partners.
UniProt Q07820, whole entry: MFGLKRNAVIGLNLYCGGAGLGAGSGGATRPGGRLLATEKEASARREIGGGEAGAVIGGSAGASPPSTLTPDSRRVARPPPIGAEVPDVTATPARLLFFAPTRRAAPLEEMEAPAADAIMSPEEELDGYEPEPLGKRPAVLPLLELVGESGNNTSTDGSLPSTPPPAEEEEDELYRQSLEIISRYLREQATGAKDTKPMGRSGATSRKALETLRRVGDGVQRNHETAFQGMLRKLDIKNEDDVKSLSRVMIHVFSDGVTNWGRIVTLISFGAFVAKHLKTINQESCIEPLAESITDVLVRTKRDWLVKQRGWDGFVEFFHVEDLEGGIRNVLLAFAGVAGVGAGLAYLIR

Only a part is listed here, and it is no random draw. The source made the active and inactive calls.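 Rule for the calls: active = inhibition above the mean inhibition of all tested compounds plus 3 SD, set per campaign (cut at about 40% in these data); inactive = the rest.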
These molecules were tested against Induced myeloid leukemia cell differentiation protein Mcl-1 (Homo sapiens) (UniProt Q07820) (assay: MCL1-BIM peptide interaction disruptors – biochemical, fluorescence polarization, primary screen (AID 2057;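 note: 0% = DMSO wells and 100% = unlabeled Bim-BH3 peptide control; higher means more loss of mP so more displacement of Bim peptide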)). Conditions: GST-MCL1 / FITC-Bim-BH3 fluorescence polarization; at 10.9 µM; stronger effect = higher value.
In the case of `COP1(=S)c2c(C)nn(CCC#N)c2N=C(c2ccc(F)cc2)N1C` (configuration not stated), the inhibition was inactive: 4.71%.
For `CC(C)(C)C(=O)NC(Sc1ccncn1)C(Cl)(Cl)Cl` (configuration not stated), the inhibition was inactive: 9.03%.

— PubChem BioAssay AID2057 (The Scripps Research Institute Molecular Screening Center, 2009)
